From PubChem BioAssay (NCATS)
This is a selection; strong and weak results do not stand in their true shares. Records with an inconclusive call do not appear. Calls of active or inactive are those of the source. Unless noted, the call rests on the fitted dose curve; in most records, active means well fitted curve in the direction sought with a large enough effect; inconclusive means small, poorly fitted or top-dose-only effect, or another doubt; inactive means no such curve, though single readings can be large; an effect the other way counts as inactive or inconclusive.

Sequences of proteins named here, by UniProt entry; tags and fusion partners are left off. A change or cut given only in a name is not applied to a line headed by its entry.
UniProt P27695, whole entry, looked up: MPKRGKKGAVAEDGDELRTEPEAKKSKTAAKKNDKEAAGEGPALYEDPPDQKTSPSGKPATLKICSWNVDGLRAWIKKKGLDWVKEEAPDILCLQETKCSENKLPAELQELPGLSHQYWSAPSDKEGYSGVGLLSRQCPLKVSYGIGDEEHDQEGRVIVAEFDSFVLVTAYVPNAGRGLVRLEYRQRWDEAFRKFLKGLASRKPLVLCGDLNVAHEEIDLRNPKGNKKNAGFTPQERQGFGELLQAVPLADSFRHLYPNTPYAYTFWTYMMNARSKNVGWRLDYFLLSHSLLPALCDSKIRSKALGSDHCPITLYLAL
UniProt P02791: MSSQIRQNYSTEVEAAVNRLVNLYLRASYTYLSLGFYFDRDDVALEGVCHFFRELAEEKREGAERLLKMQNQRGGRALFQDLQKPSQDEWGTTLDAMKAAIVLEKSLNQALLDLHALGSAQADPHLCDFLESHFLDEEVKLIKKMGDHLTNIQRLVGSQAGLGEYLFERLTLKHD
UniProt O75604: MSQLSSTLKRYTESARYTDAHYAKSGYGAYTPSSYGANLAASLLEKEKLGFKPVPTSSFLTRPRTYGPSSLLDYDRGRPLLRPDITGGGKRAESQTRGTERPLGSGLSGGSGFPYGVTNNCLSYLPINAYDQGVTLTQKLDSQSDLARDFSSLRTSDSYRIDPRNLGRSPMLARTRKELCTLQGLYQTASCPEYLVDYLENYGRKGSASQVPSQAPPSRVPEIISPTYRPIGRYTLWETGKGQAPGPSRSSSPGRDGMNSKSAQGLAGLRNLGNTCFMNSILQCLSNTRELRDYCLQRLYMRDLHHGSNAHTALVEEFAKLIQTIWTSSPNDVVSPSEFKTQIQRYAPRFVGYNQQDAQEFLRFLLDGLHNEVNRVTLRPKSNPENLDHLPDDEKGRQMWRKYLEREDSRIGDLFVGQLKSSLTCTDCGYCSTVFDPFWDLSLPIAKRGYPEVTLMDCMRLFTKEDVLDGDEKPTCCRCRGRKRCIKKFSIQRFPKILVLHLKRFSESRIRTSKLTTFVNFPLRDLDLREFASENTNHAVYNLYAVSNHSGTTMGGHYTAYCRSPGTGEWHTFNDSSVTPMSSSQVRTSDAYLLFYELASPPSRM
UniProt O89049, whole entry, looked up: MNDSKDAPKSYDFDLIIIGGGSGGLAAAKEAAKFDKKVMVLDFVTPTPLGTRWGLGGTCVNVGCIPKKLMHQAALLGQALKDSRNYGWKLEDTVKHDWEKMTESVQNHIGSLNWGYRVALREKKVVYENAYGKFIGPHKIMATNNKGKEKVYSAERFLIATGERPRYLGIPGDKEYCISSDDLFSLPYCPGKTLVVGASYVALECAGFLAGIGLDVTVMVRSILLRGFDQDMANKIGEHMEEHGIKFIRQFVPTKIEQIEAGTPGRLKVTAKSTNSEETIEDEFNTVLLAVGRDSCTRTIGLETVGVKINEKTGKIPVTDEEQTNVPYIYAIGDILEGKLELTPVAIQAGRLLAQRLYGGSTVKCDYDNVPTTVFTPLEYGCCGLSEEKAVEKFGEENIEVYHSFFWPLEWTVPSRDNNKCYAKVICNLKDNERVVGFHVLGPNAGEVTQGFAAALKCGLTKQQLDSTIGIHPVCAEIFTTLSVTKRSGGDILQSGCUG
UniProt Q99549: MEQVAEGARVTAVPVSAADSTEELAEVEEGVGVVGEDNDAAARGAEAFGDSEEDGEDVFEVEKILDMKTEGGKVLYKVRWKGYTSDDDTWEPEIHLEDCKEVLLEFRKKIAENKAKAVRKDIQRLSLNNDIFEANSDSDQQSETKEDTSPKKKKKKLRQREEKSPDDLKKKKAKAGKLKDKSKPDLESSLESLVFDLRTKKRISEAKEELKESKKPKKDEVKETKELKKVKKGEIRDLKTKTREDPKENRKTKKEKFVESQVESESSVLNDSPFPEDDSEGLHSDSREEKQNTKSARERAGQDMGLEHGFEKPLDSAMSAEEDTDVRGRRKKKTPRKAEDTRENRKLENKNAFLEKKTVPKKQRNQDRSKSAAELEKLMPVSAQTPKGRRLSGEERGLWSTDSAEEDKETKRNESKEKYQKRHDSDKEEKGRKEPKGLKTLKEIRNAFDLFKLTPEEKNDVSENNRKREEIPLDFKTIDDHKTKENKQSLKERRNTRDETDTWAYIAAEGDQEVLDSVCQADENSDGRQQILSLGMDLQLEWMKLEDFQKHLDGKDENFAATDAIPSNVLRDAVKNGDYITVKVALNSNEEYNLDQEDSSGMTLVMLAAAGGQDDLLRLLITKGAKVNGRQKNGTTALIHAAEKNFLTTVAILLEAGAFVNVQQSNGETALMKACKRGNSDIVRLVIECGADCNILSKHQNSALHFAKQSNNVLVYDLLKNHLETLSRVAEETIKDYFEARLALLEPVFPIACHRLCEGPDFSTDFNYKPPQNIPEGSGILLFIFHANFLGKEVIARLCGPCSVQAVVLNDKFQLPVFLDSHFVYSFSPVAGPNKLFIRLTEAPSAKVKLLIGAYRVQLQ
UniProt Q6LX38: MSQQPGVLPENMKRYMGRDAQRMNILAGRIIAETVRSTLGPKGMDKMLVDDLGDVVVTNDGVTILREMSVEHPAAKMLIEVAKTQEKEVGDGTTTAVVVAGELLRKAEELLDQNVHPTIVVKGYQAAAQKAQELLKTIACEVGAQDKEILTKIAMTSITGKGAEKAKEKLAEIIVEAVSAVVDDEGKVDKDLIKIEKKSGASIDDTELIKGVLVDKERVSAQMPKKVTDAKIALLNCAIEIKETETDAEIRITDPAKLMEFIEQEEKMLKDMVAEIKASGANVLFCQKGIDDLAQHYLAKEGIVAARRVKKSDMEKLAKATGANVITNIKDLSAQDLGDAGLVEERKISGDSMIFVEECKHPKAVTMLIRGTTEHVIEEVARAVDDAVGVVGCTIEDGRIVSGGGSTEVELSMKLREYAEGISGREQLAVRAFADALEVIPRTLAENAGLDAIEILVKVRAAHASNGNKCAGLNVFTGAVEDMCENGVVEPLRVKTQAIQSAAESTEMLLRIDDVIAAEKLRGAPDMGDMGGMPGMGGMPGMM
UniProt P16473, whole entry, looked up: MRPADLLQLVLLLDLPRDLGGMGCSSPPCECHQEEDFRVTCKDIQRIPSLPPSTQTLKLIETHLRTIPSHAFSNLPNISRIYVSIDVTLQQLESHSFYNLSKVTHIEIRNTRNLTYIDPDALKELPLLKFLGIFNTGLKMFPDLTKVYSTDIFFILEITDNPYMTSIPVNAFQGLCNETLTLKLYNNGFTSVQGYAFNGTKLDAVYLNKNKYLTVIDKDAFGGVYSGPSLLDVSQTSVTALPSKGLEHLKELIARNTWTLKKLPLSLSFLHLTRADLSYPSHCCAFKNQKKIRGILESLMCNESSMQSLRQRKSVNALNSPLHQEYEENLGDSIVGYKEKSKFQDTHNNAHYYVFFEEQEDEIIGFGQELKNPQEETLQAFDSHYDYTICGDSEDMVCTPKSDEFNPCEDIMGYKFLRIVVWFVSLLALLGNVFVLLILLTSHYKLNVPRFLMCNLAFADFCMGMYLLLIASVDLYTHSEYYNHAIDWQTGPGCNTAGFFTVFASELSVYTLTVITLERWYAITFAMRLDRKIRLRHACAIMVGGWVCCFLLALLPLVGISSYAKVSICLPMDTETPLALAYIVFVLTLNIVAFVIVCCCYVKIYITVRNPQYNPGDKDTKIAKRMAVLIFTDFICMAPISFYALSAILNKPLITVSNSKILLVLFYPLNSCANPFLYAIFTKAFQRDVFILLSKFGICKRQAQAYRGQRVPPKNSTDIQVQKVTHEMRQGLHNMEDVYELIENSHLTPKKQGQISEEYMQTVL
UniProt P21728, whole entry, looked up: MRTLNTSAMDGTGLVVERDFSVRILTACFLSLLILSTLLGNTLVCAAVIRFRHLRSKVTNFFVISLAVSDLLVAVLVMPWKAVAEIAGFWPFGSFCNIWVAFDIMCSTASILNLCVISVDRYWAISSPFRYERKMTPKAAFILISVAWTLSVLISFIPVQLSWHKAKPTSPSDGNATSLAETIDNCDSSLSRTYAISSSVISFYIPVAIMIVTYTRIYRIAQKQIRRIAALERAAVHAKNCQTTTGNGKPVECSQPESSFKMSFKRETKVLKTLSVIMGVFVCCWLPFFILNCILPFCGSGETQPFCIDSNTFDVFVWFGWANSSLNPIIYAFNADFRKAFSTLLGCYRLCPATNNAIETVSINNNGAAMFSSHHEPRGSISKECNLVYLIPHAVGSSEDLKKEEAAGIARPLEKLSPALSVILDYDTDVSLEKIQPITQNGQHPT
UniProt Q96QE3: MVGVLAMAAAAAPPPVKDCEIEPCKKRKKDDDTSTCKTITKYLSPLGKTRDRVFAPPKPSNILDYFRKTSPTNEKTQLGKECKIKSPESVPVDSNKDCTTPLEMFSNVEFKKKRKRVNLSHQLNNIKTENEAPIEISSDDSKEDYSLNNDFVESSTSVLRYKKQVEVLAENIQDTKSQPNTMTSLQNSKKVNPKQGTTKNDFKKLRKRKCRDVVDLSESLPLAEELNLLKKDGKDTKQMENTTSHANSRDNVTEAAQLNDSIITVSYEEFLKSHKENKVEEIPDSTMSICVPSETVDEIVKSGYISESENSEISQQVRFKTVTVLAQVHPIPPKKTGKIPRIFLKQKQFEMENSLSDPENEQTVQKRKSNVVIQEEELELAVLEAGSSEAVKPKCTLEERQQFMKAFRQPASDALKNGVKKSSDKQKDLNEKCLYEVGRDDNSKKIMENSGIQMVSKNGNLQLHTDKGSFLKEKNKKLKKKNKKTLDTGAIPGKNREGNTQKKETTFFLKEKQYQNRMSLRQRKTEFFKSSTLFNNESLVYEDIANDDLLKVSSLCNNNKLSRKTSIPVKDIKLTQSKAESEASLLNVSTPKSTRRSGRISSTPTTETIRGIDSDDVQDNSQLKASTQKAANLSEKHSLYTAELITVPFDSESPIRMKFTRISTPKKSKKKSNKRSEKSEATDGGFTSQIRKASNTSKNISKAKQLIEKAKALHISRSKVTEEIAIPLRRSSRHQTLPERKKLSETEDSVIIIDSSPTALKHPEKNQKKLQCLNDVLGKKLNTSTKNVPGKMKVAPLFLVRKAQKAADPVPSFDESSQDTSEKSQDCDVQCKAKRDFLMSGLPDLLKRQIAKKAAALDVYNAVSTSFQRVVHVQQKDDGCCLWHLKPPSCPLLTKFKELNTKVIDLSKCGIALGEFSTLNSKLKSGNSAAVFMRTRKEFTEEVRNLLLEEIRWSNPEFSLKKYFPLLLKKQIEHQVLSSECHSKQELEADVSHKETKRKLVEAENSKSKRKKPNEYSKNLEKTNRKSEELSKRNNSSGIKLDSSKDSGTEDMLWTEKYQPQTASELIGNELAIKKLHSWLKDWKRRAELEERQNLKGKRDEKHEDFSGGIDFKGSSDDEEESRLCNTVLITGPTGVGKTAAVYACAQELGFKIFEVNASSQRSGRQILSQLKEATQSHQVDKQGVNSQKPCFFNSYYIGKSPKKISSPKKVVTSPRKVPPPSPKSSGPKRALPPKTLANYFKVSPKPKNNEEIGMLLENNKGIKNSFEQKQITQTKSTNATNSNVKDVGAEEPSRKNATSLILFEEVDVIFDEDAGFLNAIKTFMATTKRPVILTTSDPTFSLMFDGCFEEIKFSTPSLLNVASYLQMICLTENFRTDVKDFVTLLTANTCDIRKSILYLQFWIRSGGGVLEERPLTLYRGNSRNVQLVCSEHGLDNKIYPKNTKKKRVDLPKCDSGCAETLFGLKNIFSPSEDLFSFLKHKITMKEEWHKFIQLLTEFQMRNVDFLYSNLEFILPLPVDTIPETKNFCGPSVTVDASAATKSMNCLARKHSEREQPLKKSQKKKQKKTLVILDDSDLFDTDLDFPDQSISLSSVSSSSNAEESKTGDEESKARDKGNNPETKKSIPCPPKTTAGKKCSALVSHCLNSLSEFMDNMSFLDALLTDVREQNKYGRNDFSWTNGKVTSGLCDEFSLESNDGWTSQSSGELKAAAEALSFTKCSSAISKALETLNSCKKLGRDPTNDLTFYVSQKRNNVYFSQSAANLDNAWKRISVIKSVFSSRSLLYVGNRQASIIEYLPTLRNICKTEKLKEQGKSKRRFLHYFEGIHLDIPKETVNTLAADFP
UniProt P51570: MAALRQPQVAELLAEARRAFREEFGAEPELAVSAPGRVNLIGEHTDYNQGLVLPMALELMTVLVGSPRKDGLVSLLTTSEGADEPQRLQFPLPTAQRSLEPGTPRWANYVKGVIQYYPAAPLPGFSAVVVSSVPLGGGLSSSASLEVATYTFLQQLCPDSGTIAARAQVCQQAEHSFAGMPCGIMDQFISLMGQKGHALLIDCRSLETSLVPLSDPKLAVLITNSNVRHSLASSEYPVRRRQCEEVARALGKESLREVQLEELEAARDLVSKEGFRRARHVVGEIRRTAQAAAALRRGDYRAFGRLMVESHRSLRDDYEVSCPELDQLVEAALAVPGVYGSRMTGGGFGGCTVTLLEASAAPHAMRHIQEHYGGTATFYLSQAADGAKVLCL

Assays:
[1] = qHTS Assay for Lipid Storage Modulators (AID 1519; calls by dose curve; further: on the % scale 0 is the no-effect control and ±100 the full control effect); settings: Drosophila S3 cells, BODIPY lipid droplet/cell ratio, laser cytometry, cells loaded with oleic acid; at 57.5 µM (top of the series)
[2] = target: DNA repair nuclease/redox regulator APEX1 (Homo sapiens) (UniProt P27695); test: qHTS Validation Assay for Inhibitors of the Human Apurinic/apyrimidinic Endonuclease 1 (APE1) (AID 1705;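 further: TAMRA fluorescence gain over two minutes as APE1 cuts a quenched THF abasic duplex; on the % scale 0 is the no-effect control and ±100 the full control effect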); settings: purified APE1 endonuclease activity, fluorescence, titration; at 57.1 µM (top of the series)
Method in brief: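 qHTS, 1536-well. APE1 + cpd 15 min RT → 50 nM TAMRA/BHQ-2 THF-abasic dsDNA substrate → kinetic fluorescence, 3 reads/60 s; delta(read3−read1) = reaction progress. No-enzyme buffer = negative control.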

[3] = Counterscreen for APE1 Inhibitors: Fluorescent Dye Displacement Validation Assay (AID 1707); settings: fluorescent dye displacement from DNA; at 57.1 µM (top of the series);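 further: plate controls were ThO with dsDNA and no compound for no effect and ThO without dsDNA for full effect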
Method in brief: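 Assay buffer: Tris-HCl pH7.5 with 50mM NaCl, 2 mM MgCl2, 0.01% Tween-20. Dye 250 nM, duplex 50 nM final. Readout: decrease in ThO endpoint fluorescence, 480 nm excitation, 540 nm emission.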

[4] = target: Ferritin light chain (Equus caballus) (UniProt P02791); test: qHTS Validation Assay for Identification of Novel General Anesthetics (AID 2323); settings: horse apoferritin, anesthetic-site fluorescent probe displacement; at 76.9 µM (top of the series); further: on the % scale 0 is the no-effect control and ±100 the full control effect
Method in brief: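 Fluorescence at 535 nm (excitation 380 nm) reported loss of 1-AMA binding to horse-spleen apoferritin (10 uM) in PBS with 50% saturated 1-aminoanthracene, after 10 min room-temperature incubation with compound; values from Hill fits of normalized response.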

[5] = target: ATP-dependent DNA helicase Q1 (Homo sapiens) (UniProt P46063); test: qHTS Validation Assay for Inhibitors of RecQ-Like Dna Helicase 1 (RECQ1) (AID 2353); settings: recombinant RECQ1 helicase DNA unwinding assay; at 25.6 µM (top of the series);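 further: plate controls were DMSO vehicle for no effect and enzyme-free control for full effect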
Method in brief: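 50 nM RECQ1T1 preincubated 15 min with compound in Tris pH 8.0 buffer with MgCl2, DTT, Tween-20 and 2.5 ug/ml poly(dI-dC); started with 200 nM TAMRA/BHQ-2 forked duplex and 2 mM ATP. Unwinding read as fluorescence (525/598 nm), two reads 2 h apart.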

[6] = Cytometric Cell-Based qHTS for Inhibitors of the mTORC1 Signaling Pathway in MEF (Tsc2-/-, p53-/-) Cells (AID 2660); settings: mTORC1 pathway cytometry; at 38.3 µM (top of the series);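 further: Tsc2 and p53 null MEFs carrying empty vector with compound for 24 h; percent of cells above a phospho-rpS6 to PI ratio cutoff in each well; plate controls were DMSO for no effect and rapamycin for full effect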
Method in brief: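 Cells are plated, treated with compound for 24 hrs at 37 degree Celsius, then fixed, blocked and immunostained for phospho-rpS6 Ser235/236. Propidium iodide counterstain follows. Per-well % positive cells is derived from the PI-normalized phospho-S6 signal.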

[7] = High Content Imaging Cell-Based qHTS for Inhibitors of the mTORC1 Signaling Pathway in MEF (Tsc2-/-, p53-/-) Cells (AID 2666); settings: at 38.3 µM (top of the series);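 further: percent of cells scored positive for phospho-rpS6 Ser235/236 immunostaining by imaging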
Method in brief: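 Cells were plated, dosed with compound after 24 hrs, and incubated another 24 hrs at 37 degree Celsius. Fixed cells were immunostained for phospho-rpS6 Ser235/236 and counterstained, and the normalized signal was scored as % active cells against rapamycin and DMSO controls.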

[8] = Validation screen for small molecules that induce DNA re-replication in MCF 10A normal breast cells (AID 463097); settings: MCF 10A cells, DNA re-replication phenotype imaging; at 46.1 µM (top of the series); further: 0% is about no effect; nearly all actives have a fitted effect of over 60% in size
Method in brief: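 Image-based qHTS: normal breast cells are incubated with compound for 48 hr, stained with Hoechst, and scanned for total nuclear fluorescence. Compounds raising the fraction of nuclei with elevated DNA content count as re-replication inducers.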

[9] = target: Ubiquitin carboxyl-terminal hydrolase 2 (Homo sapiens) (UniProt O75604); test: qHTS Validation Assay for Inhibitors of Ubiquitin-specific Protease USP2a Using CHOP2 as the Reporter (AID 463106); settings: USP2a cleavage of CHOP2 reporter, enzymatic; at 38.3 µM (top of the series);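 further: plate controls were DMSO for no effect and full inhibition by NEM for full effect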
Method in brief: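 10nM USP2 core + cpd, 30min RT; add 25nM Ub-CHOP2/25nM substrate; 60min RT; FI 485/531nm. Buffer Tris pH 8.0, CaCl2, BME, CHAPS. Norm. to NEM = 100% inhibition; time-zero read flags fluorescent artifacts.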

[10] = qHTS Validation Assay to Find Inhibitors of Chronic Active B-Cell Receptor Signaling (AID 485345; active means well fitted curve in the direction sought with a large enough effect in the main read-out, with a control signal flat, not every such curve was filed as active;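 further: 0% = untreated basal cells and 100% = 10 µM MG-132 proteasome inhibitor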); settings: ABC-DLBCL cells, chronic BCR signaling reporter, CBG luciferase; at 46.1 µM (top of the series)
Method in brief: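 Read-out: ratio of filter-corrected green (IkappaBalpha fusion) to red (native) luciferase signal in doxycycline-induced TMD8 cells after 4 h at 37C. Titration spanned 46 uM–3 nM; Data were normalised to basal cells and 10 uM MG-132 wells.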

[11] = target: Beta-2 adrenergic receptor (Homo sapiens) (UniProt P07550); test: qHTS validation assay of beta-arrestin-biased ligands of beta2-adrenergic receptor (AID 485366); settings: cell-based beta-arrestin recruitment to ADRB2, qHTS; at 46.1 µM (top of the series); further: 0% is about no effect
Method in brief: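 Values derive from curve-fitted %Activity of a luminescent beta-arrestin recruitment reporter; compounds tested up to 46 microM on Tango cells for 18 hr at 37 degrees C, 5% CO2.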

[12] = target: Thioredoxin reductase 1, cytoplasmic (Rattus norvegicus) (UniProt O89049); test: qHTS Assay for Substrates of Mammalian Selenoprotein Thioredoxin Reductase 1 (TrxR1) (AID 488772); settings: purified TrxR1, NADPH consumption substrate assay; at 57.1 µM (top of the series);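 further: NADPH fluorescence in the first read after selenite addition and not the 8 min delta; 0% is about no effect; a drop in NADPH fluorescence below the no-compound background marks a TrxR1 substrate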
Method in brief: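 Quantitative HTS in Tris-HCl buffer at pH 7.5 with EDTA and Tween-20, using rat TrxR1, 400 uM NADPH and 400 uM selenite (final). A fall in initial NADPH fluorescence relative to background marked substrate behaviour.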

[13] = target: Thioredoxin reductase 1, cytoplasmic (Rattus norvegicus) (UniProt O89049); test: qHTS Assay for Inhibitors of Mammalian Selenoprotein Thioredoxin Reductase 1 (TrxR1) (AID 488773); settings: purified TrxR1 enzyme activity; at 57.1 µM (top of the series);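 further: drop in NADPH fluorescence over an 8 min run after selenite addition; on the % scale 0 is the no-effect control and ±100 the full control effect; nearly all actives have a fitted effect of over 40% in size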
Method in brief: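 Steps: enzyme (90 nM) plus NADPH (400 uM final), 5 min at ~22 deg C; compound added, 15 min; selenite (400 uM final) added; fluorescence followed for 8 min. Concentration-response curves derived from the normalized delta values.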

[14] = target: Flap endonuclease 1 (Homo sapiens) (UniProt P39748); test: qHTS Validation Assay for the Inhibitors of Human Flap endonuclease 1 (FEN1) (AID 488816); settings: FEN1 nuclease activity, fluorogenic DNA substrate; at 57.1 µM (top of the series); further: on the % scale 0 is the no-effect control and ±100 the full control effect
Method in brief: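 Readings taken at 0 and 15 min after starting the reaction with 50 nM (final) substrate supplied the signal. Compounds had first sat with 10 nM FEN1 reagent for 15 min at room temperature. Values come from Hill-equation concentration-response fits.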

[15] = target: M-phase phosphoprotein 8 (Homo sapiens) (UniProt Q99549); test: qHTS Validation Assay for Inhibitors for MPP8 Chromodomain Interactions with Methylated Histone Tails (AID 488949); settings: AlphaScreen MPP8 binding to H3K9me3 peptide;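 further: 50 nM MPP8 with 50 nM peptide preformed then compounds added for 30 min; AlphaScreen signal from MPP8 chromodomain bound to biotinylated H3K9me3 peptide; top concentration of the series differs between compounds; on the % scale 0 is the no-effect control and ±100 the full control effect; nearly all actives have a fitted effect of over 55% in size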
Method in brief: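 50 nM MPP8 + 50 nM b-H3K9me3 peptide, PBS pH 7.4/0.01% Tween-20, 30 min RT; + cpd 30 min RT; + AlphaScreen donor/Ni-chelate acceptor beads 10 ug/mL final, 30 min dark; luminescence read.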

[16] = target: Chromobox protein homolog 1 (Homo sapiens) (UniProt P83916); test: qHTS Validation Assay for Inhibitors of HP1-beta Chromodomain Interactions with Methylated Histone Tails (AID 488953); settings: HP1-beta chromodomain / methylated histone peptide binding assay; at 114 µM (top of the series);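 further: loss of AlphaScreen luminescence from HP1-beta binding biotinylated H3K9me3 peptide; on the % scale 0 is the no-effect control and ±100 the full control effect; nearly all actives have a fitted effect of over 50% in size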
[17] = target: Methanococcus maripaludis chaperonin (MmCpn) (UniProt Q6LX38); test: High-Throughput Screening for Modulators of Cytosolic Chaperonin Activity: MmCpn Primary Screen (AID 488978); settings: MmCpn chaperonin refolding activity, biochemical qHTS; at 76.9 µM (top of the series);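 further: 50 nM MmCpn enzyme hydrolysing 30 µM ATP at 37 °C; 0% is about no effect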
Method in brief: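 Steps: chaperonin 50 nM final; add compound, 5 min RT; start with ATP, 30 uM final; hold 10 min at 37C; add ADP Transcreener HTRF reagent, 5 min; read ex 320, em 590 and 665 nm.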

[18] = target: Thyrotropin receptor (Homo sapiens) (UniProt P16473); test: qHTS Assay for Antagonists of the Thyroid Stimulating Hormone Receptor (AID 488980); settings: TSHR-expressing cells, cAMP antagonist read-out; at 57.5 µM (top of the series); further: 0% is about no effect
Method in brief: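 Readout is cAMP by HTRF competition between cellular cAMP and cAMP-d2 for a cryptate-labelled antibody. Antagonism was assessed in TSHR-transfected HEK293 cells stimulated with 4 nM TSH (EC80, final) in the presence of RO 20-1724.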

[19] = target: D(1A) dopamine receptor (Homo sapiens) (UniProt P21728); test: HTS Assay for Allosteric Agonists of the Human D1 Dopamine Receptor: Primary Screen for Agonists (AID 488981); settings: D1 receptor-expressing cells, agonist cAMP readout; at 41.8 µM (top of the series); further: 0% is about no effect
Method in brief: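 Calcium flux in an inducible, force-coupled HEK293 Trex D1 line (overnight at 30 C): agonist mode is the 180 s kinetic read after compound; potentiator mode is the following 180 s read after dopamine at EC20.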

[20] = target: D(1A) dopamine receptor (Homo sapiens) (UniProt P21728); test: HTS Assay for Allosteric Agonists of the Human D1 Dopamine Receptor: Primary Screen for Antagonists (AID 488983); settings: D1 receptor cell assay, antagonist mode, qHTS titration; at 41.8 µM (top of the series);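 further: calcium flux response to an EC80 dopamine challenge measured with no-wash dye; on the % scale 0 is the no-effect control and ±100 the full control effect; nearly all actives have a fitted effect of over 65% in size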
[21] = Validation screen for small molecules that induce genotoxicity in human embryonic kidney (HEK293T) cells expressing luciferase-tagged ELG1 (AID 493106); settings: luminescence; at 46.1 µM (top of the series); further: 0% is about no effect
Method in brief: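 HEK293T cells expressing luciferase-tagged ELG1, 2,000 cells/well, exposed to compound 16 hr at 37 °C, 5% CO2. Luciferase read after ONE-Glo, 30 min at room temperature; increased signal indicates genetic stress.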

[22] = target: ATPase family AAA domain-containing protein 5 (Homo sapiens) (UniProt Q96QE3); test: Validation screen for small molecules that inhibit ELG1-dependent DNA repair in human embryonic kidney (HEK293T) cells expressing luciferase-tagged ELG1 (AID 493107); settings: HEK293T ELG1-luciferase level, luminescence, 5-fluorouridine co-treatment, 16 h; at 46.1 µM (top of the series);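 further: cells co-treated with the DNA-damaging agent 5-fluorouridine alongside compound; on the % scale 0 is the no-effect control and ±100 the full control effect; inhibitors lower the ELG1-luciferase luminescence signal; nearly all actives have a fitted effect of over 70% in size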
Method in brief: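 HEK293T cells expressing luciferase-tagged ELG1, 2,000 per well, treated with 5-fluorouridine plus compound for 16 h at 37 C. ONE-Glo luminescence after 30 min at room temperature reports ELG1 reporter level.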

[23] = target: Thyrotropin-releasing hormone receptor (Homo sapiens) (UniProt P34981); test: qHTS for Small Molecule Agonists and Allosteric Enhancers of Human TRH Receptor: Validation Screen for Agonists (AID 493127;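 active means calcium activation more than 3 SD above the typical response in the agonist read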; further: 0% is about no effect); settings: TRH receptor agonist cell assay; at 2 µM; active compounds read high
Method in brief: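 TRHR cells loaded with fluo-8 calcium dye; FDSS kinetic fluorescence (Ex 480/Em 530) read at 1 s/cycle after 23 nL compound addition. Agonist-mode calcium response recorded before the 10 nM TRH (EC20) addition.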

[24] = Nrf2 qHTS screen for inhibitors: Validation (AID 493153; active means well fitted inhibition curve with a large enough effect in the main read-out, with a control signal flat, not every such curve was filed as active;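 further: A549 cells with ARE-driven firefly luciferase reporter reporting Nrf2 activity; % of control where 0% means no effect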); settings: A549 ARE-Fluc reporter, luciferase luminescence, 18-24 h; at 46.1 µM (top of the series)
[25] = qHTS for Inhibitors of Cell Surface uPA Generation: Validation Assay (AID 493164); settings: mouse cells, plasminogen activation; at 38.3 µM (top of the series); further: 0% is about no effect
Method in brief: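 RAW 264.7 cells (4000/well) were plated overnight, then exposed for 18 h at 37 C, 5% CO2 to compounds in a 7-point 1:5 titration (2.45 nM–38.3 uM final). Intracellular ATP was read by ATP-Lite luminescence.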

[26] = target: Galactokinase (Homo sapiens) (UniProt P51570); test: qHTS Validation Assay for Inhibitors of Human Galactokinase (GALK) (AID 493189); settings: purified human GALK enzyme activity, qHTS 7-point titration; at 57.5 µM (top of the series); further: 0% is about no effect
Method in brief: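 5 nM GALK / 100 uM galactose / 35 uM ATP, 20 mM HEPES pH8.0, 5 mM MgCl2, 60 mM NaCl, 1 mM DTT, 0.01% BSA (final). RT 1 h; Kinase-Glo Plus luminescence.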

[27] = Validation screen for small molecules that induce DNA re-replication in SW480 colon adenocarcinoma cells (AID 504364); settings: DNA re-replication phenotype (high-content imaging); at 46.1 µM (top of the series); further: 0% is about no effect
Method in brief: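 SW480 cells (250/well) exposed 48 h at 37 C, 5% CO2, then Hoechst-stained 40 min. Nuclear DNA content imaged by fluorescence scanning (405 nm excitation, 500-530 nm emission); re-replication scored as increased nuclei with elevated intensity.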

[28] = target: Peptidyl-prolyl cis-trans isomerase NIMA-interacting 1 (Homo sapiens) (UniProt Q13526); test: qHTS Validation Assay to Find Inhibitors of Pin1 (AID 504536; active means well fitted inhibition curve with a large enough effect in the polarisation, with a control signal flat, not every such curve was filed as active; the % refers to the polarisation;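 further: 0% = full Pin1 enzyme wells and -100% = no-enzyme wells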); settings: Pin1 fluorescence polarization peptide binding assay; at 57.5 µM (top of the series)
Method in brief: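 Fluorescence polarization competition: compounds (titration) displace HiFluor-488-labeled Pin1-1b peptide from Pin1 (0.3 uM final) in pH 7.5 HEPES buffer with DTT, 10 min at room temperature; %Activity normalized to no-enzyme wells, curves fitted.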

CN(C(=O)Cc1ccccc1)[C@@H]1CC[C@]2(CCCO2)C[C@H]1N1CCCC1
inactive: activity change, negative = inhibition [1] 3.89% | activity change, negative = inhibition [2] 2.38% | activity change, negative = inhibition [3] 16.9% | activity change, negative = inhibition [4] -8.47% | activity change, negative = inhibition [5] -0.703% | activity change, negative = inhibition [6] 7.37% | outcome [7] | re-replication induction [8] 1.9% | activity, negative = inhibition [9] -0.613% | activity change [10] -3.96% | activation [11] 0.352% | activity change, negative = NADPH consumption [12] 1.92% | activity change, negative = inhibition [13] -23.4% | activity, negative = inhibition [14] -8.24% | activity change, negative = inhibition ([15]; at 57.1 µM (top of the series)) -0.56% | activity change, negative = inhibition ([15]; at 114 µM (top of the series)) 3.31% | activity change, negative = inhibition [16] -12.6% | activity change, negative = inhibition [17] -2.38% | activity, negative = inhibition [18] -2.62% | activation [19] 2.96% | activity change, negative = inhibition [20] 15.4% | activity change, positive = ELG1 induction [21] -5.24% | activity change, negative = decrease [22] 5.81% | activation [23] 0.375% | activity change, negative = inhibition [24] 8.74% | activity change [25] 0.739% | activity change, negative = inhibition [26] 0.54% | activity (re-replication induction) [27] 10.3% | activity, negative = inhibition [28] -17.9%
